Protein sequences, listed by entry. Tags and fused reporters are not part of them.
UniProt P35367, whole entry: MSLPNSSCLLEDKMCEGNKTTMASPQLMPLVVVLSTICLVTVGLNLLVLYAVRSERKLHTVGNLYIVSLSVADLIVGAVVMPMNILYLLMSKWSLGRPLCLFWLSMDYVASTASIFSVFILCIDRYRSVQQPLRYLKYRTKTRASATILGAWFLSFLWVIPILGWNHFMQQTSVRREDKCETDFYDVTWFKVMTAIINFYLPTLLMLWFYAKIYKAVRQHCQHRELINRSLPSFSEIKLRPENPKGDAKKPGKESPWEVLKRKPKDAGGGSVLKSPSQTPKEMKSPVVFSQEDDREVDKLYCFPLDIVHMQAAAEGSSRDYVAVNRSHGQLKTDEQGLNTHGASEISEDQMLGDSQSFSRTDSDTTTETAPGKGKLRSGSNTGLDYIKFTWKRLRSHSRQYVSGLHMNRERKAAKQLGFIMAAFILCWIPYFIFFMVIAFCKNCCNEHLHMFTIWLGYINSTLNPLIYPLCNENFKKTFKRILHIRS

According to ChEMBL document CHEMBL6087467, “Probing the Histamine H1 Receptor Binding Site to Explore Ligand Binding Kinetics” (J Med Chem, 2025):

Legend:
Histamine H1 receptor [1] = biological target: T1, Histamine H1 receptor (Homo sapiens, UniProt P35367); conditions: HEK293T, time 4.0 hrs
Histamine H1 receptor [2] = biological target: T1, Histamine H1 receptor; conditions: HEK293T, time 4.0 hrs; remark: listed apart in the source
Histamine H1 receptor [3] = biological target: T1, Histamine H1 receptor; assay type: cell-based; conditions: hek293t

**Q.** How did the Ka (Histamine H1 receptor [1]) turn out when Cc1ccc(/C(=C\CN2CCCC2)c2cccc(/C=C/C(=O)O)n2)cc1 [ACRIVASTINE] was run?
**A.** 0.58 10^6/M/min

**Q.** What about the Retention time (Histamine H1 receptor [2]) of the same molecule?
**A.** 15 min

**Q.** And the “Dissociation rate constant (koff)” value (Histamine H1 receptor [3])?
**A.** 0.00112 s⁻¹
